We go through 3 compounds from patent US20220204473A1, “COMPOUND AS IRAK INHIBITOR” (SHANGHAI MEIYUE BIOTECH DEVELOPMENT CO., LTD., priority 2018, published 2022).

Protein sequences, listed by entry. Tags and fused reporters are not part of them.
UniProt P05177, whole entry: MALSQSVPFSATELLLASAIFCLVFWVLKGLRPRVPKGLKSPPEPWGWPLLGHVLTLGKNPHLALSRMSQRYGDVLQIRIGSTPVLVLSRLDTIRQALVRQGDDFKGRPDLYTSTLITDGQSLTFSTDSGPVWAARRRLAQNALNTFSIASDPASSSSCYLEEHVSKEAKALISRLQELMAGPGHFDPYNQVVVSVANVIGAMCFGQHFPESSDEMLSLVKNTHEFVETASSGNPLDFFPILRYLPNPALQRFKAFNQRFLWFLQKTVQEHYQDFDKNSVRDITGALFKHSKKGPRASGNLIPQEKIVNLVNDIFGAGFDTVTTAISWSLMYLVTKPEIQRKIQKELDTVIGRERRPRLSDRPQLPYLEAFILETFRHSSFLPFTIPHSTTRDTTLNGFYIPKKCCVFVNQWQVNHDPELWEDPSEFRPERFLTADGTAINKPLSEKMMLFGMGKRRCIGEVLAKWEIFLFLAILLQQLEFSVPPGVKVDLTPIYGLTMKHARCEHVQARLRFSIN
UniProt P10635, whole entry: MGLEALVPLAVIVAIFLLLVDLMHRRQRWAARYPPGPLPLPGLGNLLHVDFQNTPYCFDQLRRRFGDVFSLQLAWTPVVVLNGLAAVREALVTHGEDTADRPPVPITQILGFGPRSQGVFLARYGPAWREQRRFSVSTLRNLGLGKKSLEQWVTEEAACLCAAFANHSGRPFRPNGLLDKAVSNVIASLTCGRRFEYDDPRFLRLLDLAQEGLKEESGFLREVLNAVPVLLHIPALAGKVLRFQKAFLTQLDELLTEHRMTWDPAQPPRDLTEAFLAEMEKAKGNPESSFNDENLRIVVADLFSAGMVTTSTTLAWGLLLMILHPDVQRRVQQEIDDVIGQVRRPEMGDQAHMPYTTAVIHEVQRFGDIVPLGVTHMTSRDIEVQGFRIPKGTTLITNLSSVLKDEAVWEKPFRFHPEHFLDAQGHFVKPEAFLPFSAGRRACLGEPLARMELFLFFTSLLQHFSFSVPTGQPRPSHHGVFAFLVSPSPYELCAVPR
UniProt P33261, whole entry: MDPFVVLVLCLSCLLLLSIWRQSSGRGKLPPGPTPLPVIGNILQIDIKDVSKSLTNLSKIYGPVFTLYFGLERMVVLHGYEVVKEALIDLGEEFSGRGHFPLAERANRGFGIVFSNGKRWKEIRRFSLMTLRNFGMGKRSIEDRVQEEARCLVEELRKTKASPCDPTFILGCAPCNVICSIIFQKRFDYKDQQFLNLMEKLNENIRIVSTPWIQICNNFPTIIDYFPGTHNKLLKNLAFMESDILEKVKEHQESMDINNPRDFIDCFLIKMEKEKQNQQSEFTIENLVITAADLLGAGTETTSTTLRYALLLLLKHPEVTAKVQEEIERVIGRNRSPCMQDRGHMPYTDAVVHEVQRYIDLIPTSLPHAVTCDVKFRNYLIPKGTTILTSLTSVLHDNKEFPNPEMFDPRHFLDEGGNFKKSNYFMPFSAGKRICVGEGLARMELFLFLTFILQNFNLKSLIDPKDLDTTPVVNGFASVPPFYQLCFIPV
UniProt P11712, whole entry: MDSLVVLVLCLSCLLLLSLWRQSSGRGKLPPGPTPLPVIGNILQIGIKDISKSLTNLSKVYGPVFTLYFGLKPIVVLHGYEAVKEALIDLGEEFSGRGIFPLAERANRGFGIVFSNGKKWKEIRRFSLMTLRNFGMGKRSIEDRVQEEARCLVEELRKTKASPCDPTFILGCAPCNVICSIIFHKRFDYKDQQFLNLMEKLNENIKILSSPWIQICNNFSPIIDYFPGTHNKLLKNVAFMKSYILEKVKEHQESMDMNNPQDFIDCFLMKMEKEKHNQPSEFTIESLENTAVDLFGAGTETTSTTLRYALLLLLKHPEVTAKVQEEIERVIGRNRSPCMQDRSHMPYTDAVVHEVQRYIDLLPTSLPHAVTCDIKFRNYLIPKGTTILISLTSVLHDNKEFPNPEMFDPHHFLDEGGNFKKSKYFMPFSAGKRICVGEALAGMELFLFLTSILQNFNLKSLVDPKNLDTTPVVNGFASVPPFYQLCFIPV
UniProt Q9NWZ3, whole entry: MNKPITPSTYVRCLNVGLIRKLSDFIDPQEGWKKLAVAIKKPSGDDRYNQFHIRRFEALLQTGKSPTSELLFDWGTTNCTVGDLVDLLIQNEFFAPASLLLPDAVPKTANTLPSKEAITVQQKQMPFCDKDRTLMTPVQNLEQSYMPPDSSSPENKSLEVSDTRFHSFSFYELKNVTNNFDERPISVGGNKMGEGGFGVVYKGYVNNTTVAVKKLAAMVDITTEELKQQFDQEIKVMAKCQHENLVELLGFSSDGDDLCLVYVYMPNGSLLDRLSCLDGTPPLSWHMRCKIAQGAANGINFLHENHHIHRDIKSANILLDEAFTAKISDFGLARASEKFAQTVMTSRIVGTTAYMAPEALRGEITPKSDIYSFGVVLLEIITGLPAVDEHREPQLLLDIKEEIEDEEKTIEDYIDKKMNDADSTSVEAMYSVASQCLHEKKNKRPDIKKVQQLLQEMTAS
UniProt P51617, whole entry: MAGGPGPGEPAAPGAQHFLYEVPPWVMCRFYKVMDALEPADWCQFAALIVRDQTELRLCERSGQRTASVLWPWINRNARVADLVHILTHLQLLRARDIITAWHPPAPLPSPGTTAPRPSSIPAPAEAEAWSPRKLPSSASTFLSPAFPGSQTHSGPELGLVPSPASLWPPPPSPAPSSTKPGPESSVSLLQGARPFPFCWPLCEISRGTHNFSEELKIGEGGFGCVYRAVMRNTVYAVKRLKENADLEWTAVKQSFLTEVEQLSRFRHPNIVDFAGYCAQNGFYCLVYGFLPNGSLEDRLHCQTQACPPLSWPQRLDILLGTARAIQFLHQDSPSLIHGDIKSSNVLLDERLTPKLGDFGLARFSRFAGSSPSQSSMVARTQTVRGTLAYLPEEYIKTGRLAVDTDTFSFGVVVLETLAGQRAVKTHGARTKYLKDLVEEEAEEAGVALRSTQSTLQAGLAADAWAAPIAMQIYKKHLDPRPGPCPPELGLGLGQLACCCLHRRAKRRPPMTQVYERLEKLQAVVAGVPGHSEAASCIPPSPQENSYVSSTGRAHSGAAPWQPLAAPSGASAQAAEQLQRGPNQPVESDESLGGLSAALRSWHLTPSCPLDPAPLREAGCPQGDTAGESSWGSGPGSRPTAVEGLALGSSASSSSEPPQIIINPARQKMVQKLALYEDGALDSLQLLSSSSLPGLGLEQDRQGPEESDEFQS
UniProt P08684, whole entry: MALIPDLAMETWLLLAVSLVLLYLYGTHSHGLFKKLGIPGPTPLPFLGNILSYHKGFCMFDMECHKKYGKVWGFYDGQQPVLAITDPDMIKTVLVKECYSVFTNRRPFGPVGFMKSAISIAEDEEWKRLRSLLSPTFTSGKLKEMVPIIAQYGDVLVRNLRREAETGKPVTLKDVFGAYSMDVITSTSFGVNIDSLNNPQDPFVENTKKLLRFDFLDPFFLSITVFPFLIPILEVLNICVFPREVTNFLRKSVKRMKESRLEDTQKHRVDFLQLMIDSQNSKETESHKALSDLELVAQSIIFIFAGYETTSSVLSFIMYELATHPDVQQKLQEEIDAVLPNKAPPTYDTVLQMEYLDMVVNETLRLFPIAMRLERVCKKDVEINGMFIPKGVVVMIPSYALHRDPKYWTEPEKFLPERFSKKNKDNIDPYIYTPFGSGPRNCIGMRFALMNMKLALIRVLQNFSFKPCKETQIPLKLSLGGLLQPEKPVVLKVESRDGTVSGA

Targets include CYP1A2 (Homo sapiens, UniProt P05177); CYP2D6 (Homo sapiens, UniProt P10635); CYP2C19 (Homo sapiens, UniProt P33261); CYP2C9 (Homo sapiens, UniProt P11712).
A further data set deals with human IRAK4 (Homo sapiens, UniProt Q9NWZ3). In words: IRAK4 MSA (Mobility-Shift Assay) at Km ATP. As to conditions: read-out: IC50 for inhibiting human IRAK4 kinase; GST-IRAK4 1 nM, ATP 37 μM (Km).
For another data set, the target named is human IRAK1 (Homo sapiens, UniProt P51617). The data set is described as follows: IRAK1 MSA (Mobility-Shift Assay) at Km ATP. The format is biochemical.
A short description of data set [1]: Stability in human liver microsomes. As to conditions: ∞ = no obvious metabolism found during assay. (Liver microsomes are a subcellular fraction often used to study metabolism.)
Data set [2] in a line: Stability in rat liver microsomes. Conditions: ∞ = no obvious metabolism found during assay.
Data set [3] is described as follows: Stability in mouse liver microsomes. Conditions: ∞ = no obvious metabolism found during assay.
For a further data set, the target named is CYP3A4 (Homo sapiens, UniProt P08684). In words: CYP450 inhibition in human liver microsomes, CYP3A4. Format: in vitro ADME. Conditions: read-out: IC50, subtype 3A4, probe midazolam. As to the method: This study was intended to investigate the inhibitory effect of the test compounds on five major CYP450 enzyme subtypes CYP1A2, 2C9, 2C19, 2D6 and 3A4 in human liver microsomes. The mixed human liver microsomes used in this assay were purchased from Corning (USA). The test compounds were co-incubated at 7 concentrations with human liver microsomes and five probe substrates (phenacetin for CYP1a2, diclofenac for CYP2C9, mephenytoin for CYP2C19, dextromethorphan for CYP2D6, midazolam for CYP3A4-M, mixed). The reaction was initiated by adding coenzyme NADPH, and terminated by adding acetonitrile containing internal standard. After the proteins were precipitated, the supernatant was centrifuged. The characteristic metabolites in the supernatant (acetaminophen for CYP1A2, 4-hydroxydiclofenac for CYP2C9, 4-hydroxymephenytoin for CYP2C19, dextrorphan for CYP2D6, 1-hydroxymidazolam for CYP3A4-M) were analyzed by LC-MS/MS. The influence of the test compounds on production of the characteristic metabolites was finally analyzed on the basis of the data obtained. A selective inhibitor (ketoconazole for CYP3A4-M) was used as positive control. All samples were tested in duplicate.

Data set [4] has as its system cytokine TNF-α in LPS-induced human PBMCs. In words: Inhibition of cytokine TNF-α in LPS-induced human PBMC (ELISA). The format is cell-based. Conditions: read-out: IC50 (nM, TNF-α inhibition), 0.1 μg/mL LPS for 4 h. A general note: ELISA stands for enzyme-linked immunosorbent assay.
Data set [5] can be described thus: PK assay in rat (intravenous injection and oral gavage). As to conditions: male SD rat.
The test system of data set [6] is Salmonella typhimurium TA98 and TA100. The data set is described as follows: Mini-Ames assay in Salmonella typhimurium. As to conditions: TA98 and TA100, with or without S9 mixture.
The mark [7] stands for this setting: oral administration, 2 mpk, 5% DMSO + 15% Solutol + 80% Saline.

Where only a bound is given, the exact number is not on record here.

Turning to `CC(C)(O)c1cc2nn([C@H]3CC[C@@](C)(O)CC3)cc2cc1NC(=O)c1cccc(C(F)(F)F)n1`, the IC50 at human IRAK4 was 3.1 nM; at human IRAK1 (read-out: IRAK1 IC50, GST-IRAK1 3 nM, ATP 97 μM (Km)) it was 4130 nM; at CYP1A2 it was > 30000 nM; against CYP2D6, > 30000 nM; at CYP2C19, > 30000 nM; at CYP3A4, > 30000 nM. Also, the IC50 is 25600 nM against CYP2C9 and 146 nM in data set [4]. The “IC50 (IRAK1)/IC50 (IRAK4)” value on human IRAK1 (selectivity for IRAK4) is given as 1331. Also, the “Stability test in liver microsomes t1/2, Human” value (“Stability test … Human” below) in [1] is “∞”. In addition, the “Stability test in liver microsomes t1/2, Rat” value (from here on “Stability test … Rat”) in [2] is given as “∞”. In addition, in [3], the “Stability test in liver microsomes t1/2, Mouse” value (“Stability test … Mouse” for short) is “∞”.
As to `COc1cc2nn([C@H]3C[C@H](C(C)(C)O)C3)cc2cc1NC(=O)c1cccc(C(F)(F)F)n1`, the “Stability test … Human” value in [1] is on record as “∞”. Further, in data set [2], the “Stability test … Rat” value is “∞”. Moreover, the “Stability test … Mouse” value in data set [3] turned out to be 36.98 h. Further, in data set [5] (intravenous injection, 1 mpk), the “Area under curve AUC0-t” value was found to be 2914.24 ng·h/mL, the “Area under curve AUC0-∞” value came to 3027.43 ng·h/mL, the “Average retention time MRT” value is listed as 5.99 h and the “Clearance CL” value was determined as 5.51 mL/min/kg. For the same compound, in [5] (intravenous injection, 1 mpk), the “Half life t1/2” value is 5.48 h and the “Volume of distribution at steady state VZ” value was 2.69 L/kg. The “Peak concentration Cmax” value in data set [5] (intravenous injection, 1 mpk, 5% DMSO + 15% Solutol + 80% Saline) is 903.74 ng/mL. Besides, in data set [5] (setting [7]), the “Area under curve AUC0-t” value stood at 5029.62 ng·h/mL, the “Area under curve AUC0-∞” value stood at 5770.55 ng·h/mL, the “Average retention time MRT” value was found to be 11.28 h and the “Bioavailability F” value turned out to be 86.29%. Besides, in data set [5] (setting [7]), the “Half life t1/2” value is 7.26 h, the “Peak concentration Cmax” value is given as 413.49 ng/mL and the “Time to peak tmax” value is 4 h. For the same compound, the Mini-Ames result in data set [6] is given as “negative”. In data set [4], the IC50 turned out to be 75 nM.
On to `COc1cc2nn(C3CN(CC(C)(C)O)C3)cc2cc1NC(=O)c1cccc(C(F)(F)F)n1`, for which, on human IRAK4, the IC50 is 26 nM. In addition, the “Stability test … Human” value in data set [1] turned out to be 2.62 h. The “Stability test … Rat” value in [2] was 2.03 h. Moreover, the “Stability test … Mouse” value in [3] amounted to 4.45 h.
